From patent publication US20220259309A1

Chains of the proteins cited; added tags and fusions are not shown. Residues count along the entry.
UniProt Q15116, 25-288: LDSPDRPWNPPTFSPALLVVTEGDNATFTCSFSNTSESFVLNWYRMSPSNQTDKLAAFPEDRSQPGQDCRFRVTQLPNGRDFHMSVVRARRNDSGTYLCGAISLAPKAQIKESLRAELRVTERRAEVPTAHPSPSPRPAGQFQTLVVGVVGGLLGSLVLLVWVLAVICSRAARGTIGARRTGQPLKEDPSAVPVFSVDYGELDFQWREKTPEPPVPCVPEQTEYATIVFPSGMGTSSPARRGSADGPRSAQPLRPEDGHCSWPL

Molecular target: human PD-1 on transfected Jurkat cells (human) (UniProt Q15116)
Assay: flow cytometry, pre-titration of Alexa Fluor 647 pembrolizumab

- receptor saturating concentration: 5.5 µg/mL
Substance: Alexa Fluor 647 human anti-human PD-1 (Pembrolizumab (KEYTRUDA), Clinical grade) (antibody)
